{
  "source": "ChEMBL document CHEMBL3580637",
  "about": "“Selective Inhibition of Bacterial Topoisomerase I by alkynyl-bisbenzimidazoles” (Medchemcomm, 2014)",
  "molecular_target": "T1, DNA topoisomerase 1 (Homo sapiens) (UniProt P11387)",
  "T1 sequence (whole entry)": "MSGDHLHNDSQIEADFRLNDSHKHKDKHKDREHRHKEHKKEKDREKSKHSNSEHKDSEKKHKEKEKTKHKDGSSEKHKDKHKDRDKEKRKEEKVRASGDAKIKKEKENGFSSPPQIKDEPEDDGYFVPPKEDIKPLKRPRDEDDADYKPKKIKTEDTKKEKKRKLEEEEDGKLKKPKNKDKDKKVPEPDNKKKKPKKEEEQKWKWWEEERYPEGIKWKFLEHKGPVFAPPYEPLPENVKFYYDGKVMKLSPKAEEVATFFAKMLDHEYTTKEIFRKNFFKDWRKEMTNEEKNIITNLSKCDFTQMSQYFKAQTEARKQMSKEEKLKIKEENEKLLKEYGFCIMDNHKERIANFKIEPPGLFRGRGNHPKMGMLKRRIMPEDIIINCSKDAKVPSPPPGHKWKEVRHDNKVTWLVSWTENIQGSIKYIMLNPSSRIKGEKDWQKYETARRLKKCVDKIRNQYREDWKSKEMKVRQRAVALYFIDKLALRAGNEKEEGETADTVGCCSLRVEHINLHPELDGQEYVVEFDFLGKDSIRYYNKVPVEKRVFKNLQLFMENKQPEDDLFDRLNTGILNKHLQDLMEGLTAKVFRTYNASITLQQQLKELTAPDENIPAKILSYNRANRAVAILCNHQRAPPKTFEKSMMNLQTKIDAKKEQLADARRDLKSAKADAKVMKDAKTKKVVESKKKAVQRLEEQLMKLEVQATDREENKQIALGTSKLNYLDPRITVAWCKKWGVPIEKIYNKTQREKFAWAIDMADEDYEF",
  "experiment": "Inhibition of human DNA topoisomerase-1 using supercoiled pBAD-GFPuv plasmid DNA as substrate assessed as prevention of supercoiled DNA template from relaxation at 50 uM after 30 mins by agarose gel electrophoresis relative to control",
  "procedure,_shortened": "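Human topoisomerase I (2 units) was incubated with 250 ng supercoiled pBAD-GFPuv in 20 mM Tris-HCl pH 7.9, 50 mM KAc, 10 mM Mg(Ac)2, 1 mM DTT and 1 µg/ml BSA, with compound at 10 or 50 µM, for 30 min at 37 °C. After a phenol stop, DNA was resolved on 1% agarose without chloroquine beside a relaxed plasmid marker and stained with ethidium bromide.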",
  "data": [
    {"smiles": "CN1CCN(c2ccc3[nH]c(-c4ccc5[nH]c(-c6ccc(O)cc6)nc5c4)nc3c2)CC1", "note": "[HOECHST 33258]", "values": [
      {"measurement": "inhibition", "result": 70, "unit": "%"}
    ]}
  ]
}
